Molecular target: Transient receptor potential cation channel subfamily V member 1 (Rattus norvegicus, UniProt O35433)
Experiment: Agonist activity at TRPV1 in Sprague-Dawley rat DRG neuron assessed as intracellular 45Ca2+ influx by scintillation counting
Type: functional, cell-based

Amino acid sequences for entries named in this document (tags omitted).
UniProt O35433, whole entry: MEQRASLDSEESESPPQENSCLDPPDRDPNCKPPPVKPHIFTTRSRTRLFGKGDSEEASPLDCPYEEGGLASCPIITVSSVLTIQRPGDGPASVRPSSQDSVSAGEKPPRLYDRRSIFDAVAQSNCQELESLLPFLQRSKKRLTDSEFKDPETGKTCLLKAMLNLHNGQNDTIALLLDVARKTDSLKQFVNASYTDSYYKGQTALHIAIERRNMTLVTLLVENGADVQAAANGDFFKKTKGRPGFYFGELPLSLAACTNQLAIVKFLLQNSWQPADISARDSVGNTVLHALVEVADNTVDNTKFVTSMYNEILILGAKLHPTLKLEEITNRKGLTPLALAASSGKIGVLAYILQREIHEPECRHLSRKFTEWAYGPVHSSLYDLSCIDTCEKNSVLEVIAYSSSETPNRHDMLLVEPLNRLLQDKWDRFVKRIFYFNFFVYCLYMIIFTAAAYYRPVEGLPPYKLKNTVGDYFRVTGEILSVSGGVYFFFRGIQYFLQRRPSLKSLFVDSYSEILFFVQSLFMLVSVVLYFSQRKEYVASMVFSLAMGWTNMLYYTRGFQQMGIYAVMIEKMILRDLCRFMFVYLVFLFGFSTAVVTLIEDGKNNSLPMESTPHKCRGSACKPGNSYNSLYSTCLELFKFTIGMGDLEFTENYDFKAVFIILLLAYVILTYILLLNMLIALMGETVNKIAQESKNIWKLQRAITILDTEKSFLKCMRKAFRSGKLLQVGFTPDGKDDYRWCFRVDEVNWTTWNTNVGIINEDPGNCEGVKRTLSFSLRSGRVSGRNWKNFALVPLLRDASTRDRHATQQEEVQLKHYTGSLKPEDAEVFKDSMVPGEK

## CC(C)(C)c1ccc(CNC(=S)NCc2ccc(NS(C)(=O)=O)cc2)cc1
  EC50: > 100 µM
